Test results published in ChEMBL document CHEMBL5357013, “Identification of Spiro[chromene-2,4'-piperidine]s as Potent, Selective, and Gq-Biased 5-HT2C Receptor Partial Agonists” (ACS Med Chem Lett, 2024).

Chains of the proteins cited; added tags and fusions are not shown. Lines headed by an entry give the natural chain unless they say otherwise; changes in a name come on top.
UniProt P28335: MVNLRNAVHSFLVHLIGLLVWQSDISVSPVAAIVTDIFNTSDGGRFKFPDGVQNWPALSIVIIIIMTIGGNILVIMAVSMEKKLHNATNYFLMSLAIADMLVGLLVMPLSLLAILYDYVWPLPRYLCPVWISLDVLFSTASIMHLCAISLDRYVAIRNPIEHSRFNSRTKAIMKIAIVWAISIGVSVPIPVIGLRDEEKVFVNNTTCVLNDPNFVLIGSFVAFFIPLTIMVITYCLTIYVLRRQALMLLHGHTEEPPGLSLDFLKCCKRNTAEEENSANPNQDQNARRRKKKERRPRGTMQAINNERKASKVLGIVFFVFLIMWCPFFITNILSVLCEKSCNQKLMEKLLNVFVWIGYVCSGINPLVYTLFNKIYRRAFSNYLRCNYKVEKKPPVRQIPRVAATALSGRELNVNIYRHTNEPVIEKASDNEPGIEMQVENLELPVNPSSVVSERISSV

Target: 5-hydroxytryptamine receptor 2C (Homo sapiens, UniProt P28335)
Assay: Partial agonist activity at 5-HT2CR (unknown origin) expressed in HEK293T cells assessed as increase in calcium flux measured for 3 mins by FLIPR assay
Format: functional, cell-based

COc1c(O)cc2c3c1-c1ccccc1C[C@H]3NCC2 [(-)-ASIMILOBINE] showed an EC50 of 308 nM.
